Assays:
[1] = molecular target: pY171-LAT peptide (singly phosphorylated on Y171); experiment: isothermal titration calorimetry, 1:1 binding model (Affinimeter), linked-parameter analysis of three repeats
[2] = molecular target: pY171-LAT peptide (singly phosphorylated on Y171); experiment: ITC at 25 C, peptide injected into monomeric MBP-Gads SH2; KD = 1/KA, 1:1 model

H [1]: -11.6 kcal/mol
Kd [2]: 470 nM
Substance: MBP-Gads SH2 F92D (from UniProt P0AEX9 27-392)

Source: patent publication US20220251182A1, “AGENTS WHICH INHIBIT GADS DIMERIZATION AND METHODS OF USE THEREOF” (Technion Research & Development Foundation Limited, priority 2017, published 2022)
